Earlier results in patent publication US20110195110A1 (published 2011).

Test system: Imatinib-resistant mutant forms of Bcr-Abl
Conditions: 15 Imatinib-resistant mutations tested in cell based assays

## Cc1nc(Nc2ncc(C(=O)Nc3c(C)cccc3Cl)s2)cc(N2CCN(CCO)CC2)n1 [BMS-354825]
  inhibition of Imatinib-resistant mutant forms of the protein: inhibit all the mutant forms of the protein, except T3151
